Laboratory results taken from US10974036B2, “Implantable device for long-term delivery of drugs” (Delpor, Inc., priority 2009, dated 2021).

Key:
in vivo = settings: human, plasma, iv
[1] = cited from earlier work
physchem = settings: water, pH 7.4, aqueous buffer
[2] = cited from earlier work; remark: listed apart in the source

For `Cc1cc2c(s1)Nc1ccccc1N=C2N1CCN(C)CC1` [Olanzapine, olanzapine], which clearance (in vivo) is on record?
The clearance was 350 mL/min.

And the “Half-life” value ([1]; in vivo)?
The value was 45 h.

What about the “CL(L/hr) (iv)” value [1] of the same compound?
Its value is 21 L/h.

Which clearance (in vivo) does the source give for `Cc1nc2n(c(=O)c1CCN1CCC(c3noc4cc(F)ccc34)CC1)CCCC2` [Risperidone, risperidone] here?
The clearance was 47.2 mL/min.

What about the equilibrium concentration (pH 6.8 (FIG. 6 projection)) of the same compound?
Its equilibrium concentration is “about 1.5 mg/mL”.

What about the aqueous solubility (pH 7.4) of the same compound?
Its aqueous solubility is roughly 420 µg/mL (≈ 1020 µM).

And the solubility (physchem)?
Its solubility is roughly 420 µg/mL (≈ 1020 µM).

What about the “Water solubility (mg/mL) neutral pH” value [2] of the same compound?
Its value is 0.48 mg/mL.

What about the “CL(L/hr) (iv)” value [1] of the same compound?
The value was 2.84 L/h.

What about the Bioavailability oral ([1]; oral) of the same compound?
The Bioavailability oral was 65%.

In brackets after ≈: the same amount, converted by molar mass.
